Reference: patent US12227512B2, “Benzimidazoles and methods of using same” (priority 2019, dated 2025)
pKd: −log10 of the molar value.

Experiments:
[1] = system: human initiator tRNA (iMet-tRNA anticodon domain); test: Binding to initiator tRNA (NMR, preliminary biochemical assays)
Gli-1 and c-Myc = test: Western blot of Gli-1 and c-Myc in SUFU-KO-Light cells; type: cell-based

Structure (SMILES): CN(C)CCCn1c(N)nc2ccc3c(c21)CC(CN(C)C)O3 (centres unmarked)
- pKd [1]: 6.00

Structure (SMILES): CN(C)CCCn1c(N)nc2ccc3c(c21)CC(CN(C)C)O3 (racemic)
- C-Myc mRNA levels (Gli-1 and c-Myc): increase slightly
